{"source": "ChEMBL document CHEMBL1127435", "about": "(J Med Chem, 1994)", "key": {"[1]": {"experiment": "Ratio between Ki values of D2 and S-2A receptors"}, "[2]": {"experiment": "Ratio between Ki values of D2 and S-3 receptors"}}}
{"compound": "CN1CCN(C2=Cc3cc(Cl)ccc3Cc3ccccc32)CC1", "values": [{"measurement": "Ratio", "setting": "[1]", "result": 200}, {"measurement": "Ratio", "setting": "[2]", "result": 4.3}]}
{"compound": "CN1CCN(C2=Nc3cc(Cl)ccc3Oc3ccccc32)CC1", "note": "[ISOLOXAPINE]", "values": [{"measurement": "Ratio", "setting": "[1]", "result": 14}, {"measurement": "Ratio", "setting": "[2]", "result": 3.8}]}
